Source: publication PMC10897015, “Investigation of anti-nociceptive, anti-inflammatory potential and ADMET studies of pure compounds isolated from Isodon rugosus Wall. ex Benth” (Frontiers in Pharmacology, 2024)

System: Swiss albino mice
Test: Formalin test with opioid receptor involvement
Conditions: compounds 50 mg/kg, Mor 5 mg/kg, Nal 1 mg/kg; for Total time spent in licking, % inhibition (0–5 min): first phase; for Total time spent in licking, % inhibition (15–30 min): second phase

CN1CC[C@]23c4c5ccc(O)c4O[C@H]2[C@@H](O)C=C[C@H]3[C@H]1C5 [Mor, morphine, reference compound]
Total time spent in licking, % inhibition (0–5 min): 84.99^### %
Total time spent in licking, % inhibition (0–5 min) (listed as morphine): 84.99%
Total time spent in licking, % inhibition (15–30 min): 91.33^### %
Total time spent in licking, % inhibition (15–30 min) (listed as morphine): 91.33%

Marks after values point to notes of the source that are not given here.
